# Biological target: BCRP (Homo sapiens, UniProt Q9UNQ0)
# Chains of the proteins cited; added tags and fusions are not shown. Lines headed by an entry give the natural chain unless they say otherwise; changes in a name come on top.
# UniProt Q9UNQ0: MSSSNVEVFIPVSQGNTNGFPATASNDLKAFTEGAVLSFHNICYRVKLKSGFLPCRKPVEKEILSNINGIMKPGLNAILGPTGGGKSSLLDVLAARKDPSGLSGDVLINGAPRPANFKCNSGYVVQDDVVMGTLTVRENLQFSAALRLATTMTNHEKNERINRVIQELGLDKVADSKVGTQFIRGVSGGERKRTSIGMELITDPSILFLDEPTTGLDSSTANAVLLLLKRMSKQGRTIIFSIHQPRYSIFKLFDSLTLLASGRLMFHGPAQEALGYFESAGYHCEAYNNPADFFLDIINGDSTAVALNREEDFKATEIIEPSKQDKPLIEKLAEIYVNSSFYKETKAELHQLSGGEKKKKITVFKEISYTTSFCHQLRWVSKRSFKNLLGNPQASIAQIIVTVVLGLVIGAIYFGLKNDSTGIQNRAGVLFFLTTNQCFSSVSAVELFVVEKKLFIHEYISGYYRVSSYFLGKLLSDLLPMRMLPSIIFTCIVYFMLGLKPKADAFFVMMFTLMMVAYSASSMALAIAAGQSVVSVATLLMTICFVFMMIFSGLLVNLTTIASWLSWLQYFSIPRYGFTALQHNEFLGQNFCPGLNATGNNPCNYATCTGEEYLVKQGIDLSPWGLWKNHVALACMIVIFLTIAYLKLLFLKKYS
# Experiment: Bidirectional transport assay in Caco-2 cells, BCRP substrate assessment
# Conditions: no inhibitor
substance,measurement,value
estrone sulfate,efflux ratio,33.6

# Reference: PMC12621185, “Design, Syntheses, and Pharmacological Evaluations of Core Ring Expanded Fentanyl Analogues as Potential Counteracting Agents Against Fentanyl Induced Respiratory Depression” (2025)
